Data from patent US10442819B2, “Tricyclic compounds as inhibitors of mutant IDH enzymes” (Merck Sharp & Dohme Corp., priority 2014, dated 2019).

Sequences of proteins named here, by UniProt entry; tags and fusion partners are left off.
UniProt O75874, whole entry R132H: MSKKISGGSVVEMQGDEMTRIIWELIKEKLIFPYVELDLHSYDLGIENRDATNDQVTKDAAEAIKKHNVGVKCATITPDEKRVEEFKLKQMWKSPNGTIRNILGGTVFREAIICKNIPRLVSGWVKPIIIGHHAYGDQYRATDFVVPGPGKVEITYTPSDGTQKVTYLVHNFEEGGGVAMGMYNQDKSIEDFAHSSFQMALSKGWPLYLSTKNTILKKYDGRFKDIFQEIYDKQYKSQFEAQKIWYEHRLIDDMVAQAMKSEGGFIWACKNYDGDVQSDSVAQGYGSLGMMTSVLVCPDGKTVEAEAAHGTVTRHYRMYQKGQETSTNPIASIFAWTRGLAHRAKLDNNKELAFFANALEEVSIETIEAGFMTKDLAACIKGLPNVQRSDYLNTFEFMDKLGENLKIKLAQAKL

Target: R132H mutant IDH1 enzyme (Homo sapiens (Human), UniProt O75874, R132H)
Assay: R132H IDH1 Enzymatic Assay
Assay type: biochemical
Settings: R132H mutant IDH1 enzyme 1.5 nM final; luminescence readout; read-out: IC50

SMILES | IC50 [nM]
CO[C@H]1CC[C@H](C(=O)N2Cc3cccnc3Nc3ccc(N4CC[C@H](F)C4)cc32)CC1 [Example 264, 8-[(3S)-3-fluoropyrrolidin-1-yl]-6-[(trans-4-methoxycyclohexyl)carbonyl]-6,11-dihydro-5H-pyrido[2,3-b][1,5]benzodiazepine] | 286
CO[C@H]1CC[C@H](C(=O)N2Cc3cccnc3Nc3ccc(N4CC[C@H](CF)C4)cc32)CC1 [Example 265, 8-[(3S)-3-(fluoromethyl)pyrrolidin-1-yl]-6-[(trans-4-methoxycyclohexyl)carbonyl]-6,11-dihydro-5H-pyrido[2,3-b][1,5]benzodiazepine] | 150
CO[C@H]1CC[C@H](C(=O)N2Cc3cccnc3Nc3ccc(N4CCn5c(nnc5C(C)C)C4)cc32)CC1 [Example 266, 6-[(trans-4-methoxycyclohexyl)carbonyl]-8-[3-(1-methylethyl)-5,6-dihydro[1,2,4]triazolo[4,3-a]pyrazin-7(8H)-yl]-6,11-dihydro-5H-pyrido[2,3-b][1,5]benzodiazepine] | 141
CO[C@H]1CC[C@H](C(=O)N2Cc3cccnc3Nc3ccc(N4CCn5c(C)nnc5C4)cc32)CC1 [Example 267, 6-[(trans-4-methoxycyclohexyl)carbonyl]-8-(3-methyl-5,6-dihydro[1,2,4]triazolo[4,3-a]pyrazin-7(8H)-yl)-6,11-dihydro-5H-pyrido[2,3-b][1,5]benzodiazepine] | 749
CO[C@H]1CC[C@H](C(=O)N2Cc3cccnc3Nc3ccc(N4CCn5nc(C(F)(F)F)nc5C4)cc32)CC1 [Example 268, 6-[(trans-4-methoxycyclohexyl)carbonyl]-8-[2-(trifluoromethyl)-5,6-dihydro[1,2,4]triazolo[1,5-a]pyrazin-7(8H)-yl]-6,11-dihydro-5H-pyrido[2,3-b][1,5]benzodiazepine] | 623
CO[C@H]1CC[C@@H](C(=O)N2Cc3cccnc3Nc3ccc(N4CCn5nc(C(F)(F)F)nc5C4)cc32)CC1 [Example 269, 6-[(cis-4-methoxycyclohexyl)carbonyl]-8-[2-(trifluoromethyl)-5,6-dihydro[1,2,4]triazolo[1,5-a]pyrazin-7(8H)-yl]-6,11-dihydro-5H-pyrido[2,3-b][1,5]benzodiazepine] | 334
CO[C@H]1CC[C@H](C(=O)N2Cc3cccnc3Nc3ccc(N4CCn5nc(C)cc5C4)cc32)CC1 [Example 270, 6-[(trans-4-methoxycyclohexyl)carbonyl]-8-(2-methyl-6,7-dihydropyrazolo[1,5-a]pyrazin-5(4H)-yl)-6,11-dihydro-5H-pyrido[2,3-b][1,5]benzodiazepine] | 251
CO[C@H]1CC[C@H](C(=O)N2Cc3cccnc3Nc3ccc(N4CCn5nncc5C4)cc32)CC1 [Example 271, 8-(6,7-dihydro[1,2,3]triazolo[1,5-a]pyrazin-5(4H)-yl)-6-[(trans-4-methoxycyclohexyl)carbonyl]-6,11-dihydro-5H-pyrido[2,3-b][1,5]benzodiazepine] | 689
CO[C@H]1CC[C@H](C(=O)N2Cc3cccnc3Nc3ccc(N4CCn5nc(C)nc5C4)cc32)CC1 [Example 272, 6-[(trans-4-methoxycyclohexyl)carbonyl]-8-(2-methyl-5,6-dihydro[1,2,4]triazolo[1,5-a]pyrazin-7(8H)-yl)-6,11-dihydro-5H-pyrido[2,3-b][1,5]benzodiazepine] | 546
CO[C@H]1CC[C@H](C(=O)N2Cc3cccnc3Nc3ccc(N4CCn5cccc5C4)cc32)CC1 [Example 273, 8-(3,4-dihydropyrrolo[1,2-a]pyrazin-2(1H)-yl)-6-[(trans-4-methoxycyclohexyl)carbonyl]-6,11-dihydro-5H-pyrido[2,3-b][1,5]benzodiazepine] | 272
CO[C@H]1CC[C@@H](C(=O)N2Cc3cccnc3Nc3ccc(N4CCn5cccc5C4)cc32)CC1 [Example 274, 8-(3,4-dihydropyrrolo[1,2-a]pyrazin-2(1H)-yl)-6-[(cis-4-methoxycyclohexyl)carbonyl]-6,11-dihydro-5H-pyrido[2,3-b][1,5]benzodiazepine] | 224
CO[C@H]1CC[C@H](C(=O)N2Cc3cccnc3Nc3ccc(N4CCc5nn(C)cc5C4)cc32)CC1 [Example 275, 6-[(trans-4-methoxycyclohexyl)carbonyl]-8-(2-methyl-2,4,6,7-tetrahydro-5H-pyrazolo[4,3-c]pyridin-5-yl)-6,11-dihydro-5H-pyrido[2,3-b][1,5]benzodiazepine] | 287
CO[C@H]1CC[C@H](C(=O)N2Cc3cccnc3Nc3ccc(N4CCn5cncc5C4)cc32)CC1 [Example 276, 8-(5,6-dihydroimidazo[1,5-a]pyrazin-7(8H)-yl)-6-[(trans-4-methoxycyclohexyl)carbonyl]-6,11-dihydro-5H-pyrido[2,3-b][1,5]benzodiazepine] | 819
CO[C@H]1CC[C@H](C(=O)N2Cc3cccnc3Nc3ccc(N4CCn5nc(C6CC6)nc5C4)cc32)CC1 [Example 277, 8-(2-cyclopropyl-5,6-dihydro[1,2,4]triazolo[1,5-a]pyrazin-7(8H)-yl)-6-[(trans-4-methoxycyclohexyl)carbonyl]-6,11-dihydro-5H-pyrido[2,3-b][1,5]benzodiazepine] | 519
CO[C@H]1CC[C@H](C(=O)N2Cc3cccnc3Nc3ccc(N4CCn5c(cnc5C(C)C)C4)cc32)CC1 [Example 278, 6-[(trans-4-methoxycyclohexyl)carbonyl]-8-[3-(1-methylethyl)-5,6-dihydroimidazo[1,5-a]pyrazin-7(8H)-yl]-6,11-dihydro-5H-pyrido[2,3-b][1,5]benzodiazepine] | 597
CO[C@H]1CC[C@H](C(=O)N2Cc3cccnc3Nc3ccc(N4CCC(F)(F)C4)cc32)CC1 [Example 279, 8-(3,3-difluoropyrrolidin-1-yl)-6-[(trans-4-methoxycyclohexyl)carbonyl]-6,11-dihydro-5H-pyrido[2,3-b][1,5]benzodiazepine] | 231
CO[C@H]1CC[C@H](C(=O)N2Cc3cccnc3Nc3ccc(N(C)C4(C)COC4)cc32)CC1 [Example 280, 6-[(trans-4-methoxycyclohexyl)carbonyl]-N-methyl-N-(3-methyloxetan-3-yl)-6,11-dihydro-5H-pyrido[2,3-b][1,5]benzodiazepin-8-amine] | 447
CO[C@H]1CC[C@H](C(=O)N2Cc3cccnc3Nc3ccc(N(C)CC4CCCO4)cc32)CC1 (stereo partly drawn) [Example 281, 6-[(trans-4-methoxycyclohexyl)carbonyl]-N-methyl-N-(tetrahydrofuran-2-ylmethyl)-6,11-dihydro-5H-pyrido[2,3-b][1,5]benzodiazepin-8-amine] | 94
CO[C@H]1CC[C@H](C(=O)N2Cc3cccnc3Nc3ccc(N4CCC(F)(F)CC4)cc32)CC1 [Example 282, 8-(4,4-difluoropiperidin-1-yl)-6-[(trans-4-methoxycyclohexyl)carbonyl]-6,11-dihydro-5H-pyrido[2,3-b][1,5]benzodiazepine] | 211
CO[C@H]1CC[C@H](C(=O)N2Cc3cccnc3Nc3ccc(N4C[C@@H]5C[C@H]4CO5)cc32)CC1 [Example 283, 6-[(trans-4-methoxycyclohexyl)carbonyl]-8-[(1S,4S)-2-oxa-5-azabicyclo[2.2.1]hept-5-yl]-6,11-dihydro-5H-pyrido[2,3-b][1,5]benzodiazepine] | 285
CO[C@H]1CC[C@H](C(=O)N2Cc3cccnc3Nc3ccc(N4C[C@H]5COC[C@H]5C4)cc32)CC1 [Example 284, 6-[(trans-4-methoxycyclohexyl)carbonyl]-8-[(3aR,6aS)-tetrahydro-1H-furo[3,4-c]pyrrol-5(3H)-yl]-6,11-dihydro-5H-pyrido[2,3-b][1,5]benzodiazepine] | 223
CO[C@H]1CC[C@H](C(=O)N2Cc3cccnc3Nc3ccc(N4CC(OC(C)C)C4)cc32)CC1 [Example 285, 6-[(trans-4-methoxycyclohexyl)carbonyl]-8-[3-(1-methylethoxy)azetidin-1-yl]-6,11-dihydro-5H-pyrido[2,3-b][1,5]benzodiazepine] | 271
CO[C@H]1CC[C@H](C(=O)N2Cc3cccnc3Nc3ccc(N4CCOCC4C(C)C)cc32)CC1 (stereo partly drawn) [Example 286, 6-[(trans-4-methoxycyclohexyl)carbonyl]-8-[3-(1-methylethyl)morpholin-4-yl]-6,11-dihydro-5H-pyrido[2,3-b][1,5]benzodiazepine] | 223
CO[C@H]1CC[C@H](C(=O)N2Cc3cccnc3Nc3ccc(N4CC(C)(C)OC(C)(C)C4)cc32)CC1 [Example 287, 6-[(trans-4-methoxycyclohexyl)carbonyl]-8-(2,2,6,6-tetramethylmorpholin-4-yl)-6,11-dihydro-5H-pyrido[2,3-b][1,5]benzodiazepine] | 404
CO[C@H]1CC[C@H](C(=O)N2Cc3cccnc3Nc3ccc(N4CCOCC4C)cc32)CC1 (stereo partly drawn) [Example 288, 6-[(trans-4-methoxycyclohexyl)carbonyl]-8-(3-methylmorpholin-4-yl)-6,11-dihydro-5H-pyrido[2,3-b][1,5]benzodiazepine] | 865
CO[C@H]1CC[C@H](C(=O)N2Cc3cccnc3Nc3ccc(N4CCOC(C)(C)C4)cc32)CC1 [Example 289, 8-(2,2-dimethylmorpholin-4-yl)-6-[(trans-4-methoxycyclohexyl)carbonyl]-6,11-dihydro-5H-pyrido[2,3-b][1,5]benzodiazepine] | 498
CO[C@H]1CC[C@H](C(=O)N2Cc3cccnc3Nc3ccc(N4C[C@H]5CC[C@@H](C4)O5)cc32)CC1 [Example 290, 6-[(trans-4-methoxycyclohexyl)carbonyl]-8-[(1R,5S)-8-oxa-3-azabicyclo[3.2.1]oct-3-yl]-6,11-dihydro-5H-pyrido[2,3-b][1,5]benzodiazepine] | 115
CO[C@H]1CC[C@H](C(=O)N2Cc3cccnc3Nc3ccc(N4CCO[C@@H]5CCC[C@H]54)cc32)CC1 [Example 291, 8-[(4aR,7aR)-hexahydrocyclopenta[b][1,4]oxazin-4(4aH)-yl]-6-[(trans-4-methoxycyclohexyl)carbonyl]-6,11-dihydro-5H-pyrido[2,3-b][1,5]benzodiazepine] | 123
